Data published in the NIST ThermoML archive (doi:10.1021/je034007i).
Numbers after ± are expanded uncertainties.

Columns and labels:
[1] = excess molar enthalpy (molar enthalpy of mixing); xn = mol fraction of the nth substance listed; settings: 308.15 K, 101.3 kPa, Liquid
[2] = 308.15 K; 101.33 kPa; Liquid; vibrating tube

Compound | excess molar enthalpy ([1]; x1 = 0.0169) [kJ/mol] | excess molar enthalpy ([1]; x1 = 0.0332) [kJ/mol] | excess molar enthalpy ([1]; x1 = 0.049) [kJ/mol] | excess molar enthalpy ([1]; x1 = 0.0643) [kJ/mol] | excess molar enthalpy ([1]; x1 = 0.0934) [kJ/mol] | excess molar enthalpy ([1]; x1 = 0.1208) [kJ/mol] | excess molar enthalpy ([1]; x1 = 0.1709) [kJ/mol] | excess molar enthalpy ([1]; x1 = 0.2155) [kJ/mol] | excess molar enthalpy ([1]; x1 = 0.2919) [kJ/mol] | excess molar enthalpy ([1]; x1 = 0.3818) [kJ/mol] | excess molar enthalpy ([1]; x1 = 0.4519) [kJ/mol] | excess molar enthalpy ([1]; x1 = 0.5529) [kJ/mol] | excess molar enthalpy ([1]; x1 = 0.6225) [kJ/mol] | excess molar enthalpy ([1]; x1 = 0.7121) [kJ/mol] | excess molar enthalpy ([1]; x1 = 0.7673) [kJ/mol] | excess molar enthalpy ([1]; x1 = 0.8318) [kJ/mol] | excess molar enthalpy ([1]; x1 = 0.9082) [kJ/mol] | mass density [2] [kg/m3]
OCCOCCOCCOCCO [tetraethylene glycol] + C[S+](C)[O-] | -0.11 ± 0.0033 | -0.202 ± 0.0047 | -0.289 ± 0.0062 | -0.365 ± 0.0075 | -0.494 ± 0.0097 | -0.603 ± 0.012 | -0.74 ± 0.014 | -0.839 ± 0.016 | -0.922 ± 0.017 | -0.95 ± 0.018 | -0.945 ± 0.018 | -0.904 ± 0.017 | -0.846 ± 0.016 | -0.744 ± 0.014 | -0.675 ± 0.013 | -0.556 ± 0.011 | -0.351 ± 0.0073 | –
OCCOCCOCCOCCO [tetraethylene glycol] | – | – | – | – | – | – | – | – | – | – | – | – | – | – | – | – | – | 1112.28 ± 0.56
